Measurements taken from publication PMC7293015 (Nucleic Acids Research, 2020).

Target: T1, His6-StBax1 (Sulfolobus tokodaii Bax1) (Sulfolobus tokodaii, UniProt Q970I1 1-481)
T1 sequence (looked up): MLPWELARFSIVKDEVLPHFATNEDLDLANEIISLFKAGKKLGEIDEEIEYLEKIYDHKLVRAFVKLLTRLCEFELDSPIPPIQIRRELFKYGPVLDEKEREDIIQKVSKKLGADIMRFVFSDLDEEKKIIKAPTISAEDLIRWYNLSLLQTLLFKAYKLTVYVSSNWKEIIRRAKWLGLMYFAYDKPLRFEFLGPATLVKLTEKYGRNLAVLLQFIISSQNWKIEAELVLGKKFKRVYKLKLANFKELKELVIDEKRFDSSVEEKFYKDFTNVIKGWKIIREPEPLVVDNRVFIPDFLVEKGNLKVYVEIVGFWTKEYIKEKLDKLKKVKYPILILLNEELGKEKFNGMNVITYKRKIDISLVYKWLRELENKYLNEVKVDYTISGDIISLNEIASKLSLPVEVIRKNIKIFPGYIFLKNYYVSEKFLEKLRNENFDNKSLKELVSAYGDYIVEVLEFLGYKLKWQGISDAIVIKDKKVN
Assay: cell-based or functional assay

ATPase activity of StXPB in the StXPB-Bax1 complex against StXPB alone: 5 fold
B1: His6-StXPB (Sulfolobus tokodaii XPB, XPBII) (enzyme, UniProt Q970I2 1-439, looked up)
chain: MVYLRYFKGLILSDAYAPGLKWSDELKAYSALAFKYRDVRKYFLEKEIEVEENVIDSLPFPLIKDKIELRDYQAEAVKAWLKEKRGIIVLPTGAGKTQVALKIVSIMKVATLIVVPTIDLITQWKERINKYLDFDPGIIGGGEDSLKGITVITYDSAYTRAEELGNKFPLLIFDEVHHLPSEGYSIMAQLFASPYRLGLTATPERDDGKHELYPILVGPIVYRKSVEELAGKYIAKYKIKKLYVSLTNEEKKRYDGLRKKLKDFLSSRGLKLQNLDDFHRLVKLAAKDKEAREALLAWHESLNIAVNSQSKIEKLREILQEYKNEKIIVFTRDTQMAYRISKTFLIPVVTYKTDKDEREEILQKFRDGEYRVIVASTVFDEGVDVPDATLAIVMGGYGTKRQFLQRLGRILRKKDKEALLIEIVTKGTADYRLSRRRRE
notes: residues 1 through 439 and up to 5 residues of the 6xHis-tag are seen in the crystal; also called wild type StXPB; source: E. coli Rosetta (DE3) pLysS, from pET15b, purified (heat step, ammonium sulfate, HisTrap, HiTrap SP, Sephacryl S-200)
